In the experiment the target is hNOPr (ORL-1 receptor) (Homo sapiens, UniProt P41146). To be noted: cAMP, 293-NOPr cells, forskolin.

Amino acid sequences for entries named in this document (tags omitted). A change or cut given only in a name is not applied to a line headed by its entry.
UniProt P41146: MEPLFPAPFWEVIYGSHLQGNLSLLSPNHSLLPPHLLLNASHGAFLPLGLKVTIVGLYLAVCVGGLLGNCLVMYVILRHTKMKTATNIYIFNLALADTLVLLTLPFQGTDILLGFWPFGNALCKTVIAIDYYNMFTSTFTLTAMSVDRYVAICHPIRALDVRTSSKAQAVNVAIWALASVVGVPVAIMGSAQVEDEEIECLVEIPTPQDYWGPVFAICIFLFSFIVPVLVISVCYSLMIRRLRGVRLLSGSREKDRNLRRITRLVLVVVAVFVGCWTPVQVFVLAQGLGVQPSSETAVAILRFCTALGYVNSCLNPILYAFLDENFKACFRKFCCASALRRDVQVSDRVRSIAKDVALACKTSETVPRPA

In the case of Nociceptin, the “hNOPr (ORL-1 receptor) Emax (%)” value is recorded as 96.94%.

These data come from patent EP4768477A1 (Yichang Humanwell Pharmaceutical Co., Ltd., priority 2024, dated 2025).
